Key:
[1] = tested on: Human Pancreatic Carcinoma Cell Line (BXPC-3); test: Tumor cell proliferation assay (MTT), BXPC-3; type: cell-based; settings: secondary screening, 48 hours
From the text: (§1) The assay used generally is the blue tetrazolium bromide (MTT) method. […] The amount of formazan can be detected by the microplate reader through the absorption value at 570 nm. The amount of formazan product generated is proportional to the number of living cells in the sample, so the OD value may reflect the number of living cells and the ability of a test drug to inhibit or kill cells. The MTT assay may be used in determining the ability of different compounds of the present invention to inhibit one or more cancer cells proliferation. Similar assays can be designed along the same lines for any cancer cell using techniques well known in the art.
(§2) The assay used generally is the blue tetrazolium bromide (MTT) method. […] Intracellular purple formazan salt crystals can be solved in DMSO and the absorption value at 570 nm is detected by the microplate reader, then the number of living cells can be detected indirectly. […]
(§3) 2.3.3 Preliminary screening: The compounds are firstly diluted to 0.1 mol/L with DMSO, and then diluted to three concentrations of 10^−5 mol/L, 10^−6 mol/L and 10^−7 mol/L. Add 20 ul test compounds to the 96 well plate and incubate for 72 hours. […] Each inhibition ratio is calculated, then an average value of three times is taken as the measured value. […] 2.3.5 Reading the plates: read the absorbance A570-A630 with the Infinite M200 microtiter plate reader. […]

[2] = tested on: Human Colon Cancer Cell Line (HT-29); test: Tumor cell proliferation assay (MTT), HT29; type: cell-based; settings: secondary screening, 48 hours
From the text: as §1, §2, §3

IC50 [1]: 2.43 µM | IC50 [2]: 1.73 µM
Compound: CCN(CC)CCNC(=O)c1c(C)[nH]c2c1CCC/C2=C1/C(=O)Nc2ccc(C)cc21 [I-4, N-(2-(diethylamino)ethyl)-2-methyl-7-[1,2-dihydro-5-methyl-2-oxo-3H-indol-(Z)-3-ylidene]-4,5,6,7-tetrahydro-1H-indole-3-carboxamide]

Source: US8084621B2, “3-Pyrrolo[b]cyclohexylene-2-dihydroindolinone derivatives and uses thereof” (Jiangsu Simcere Pharmaceutical R&D Co. Ltd., priority 2006, dated 2011)
